Shown are actives, neighbours in structure and some others; about 16% of the full set was active somewhere.
miR-21 reporter: raises the signal of a miR-21 reporter; AID 2288; 340,000 tested, under 10 active; Potency, µM (doses to about 38.3 µM), inactives show at the top dose reporter change, positive = more light; HeLa miR-21 FLuc reporter, luciferase, 48 h; active = well fitted rising curve with a large enough effect; inconclusive = small, poorly fitted or top-dose-only effect; inactive = no such curve, though single readings can be large or run the other way;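 note: % of control where 0% means no effect; miR-21 action dims this reporter so a rising signal means less miR-21 action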
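HeLa miR-21-FLuc reporter line, endogenous miR-21; 2000 cells/well in DMEM/10% FBS; compound titration up to ~40uM final, 48 h, 37 degree Celsius; luciferase detection reagent, 15 min lysis, CCD luminescence.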
uPA generation: cell surface uPA generation inhibition; Potency, µM (titrated, usually from 38.3 µM), for the others: at the top dose activity change, negative = inhibition, hits mostly inhibitors; cell surface uPA generation assay, qHTS; AID 540303; 0.31% of 330,000 active; active = well fitted inhibition curve with a large enough effect; inconclusive = small, poorly fitted or top-dose-only effect; inactive = no such curve, though single readings can be large or run the other way; tested in mouse RAW 264.7 cells; also: potency is read from the fitted curve at half-maximal effect; % is scaled to controls: 0 for no effect and ±100 for the full control effect; nearly all actives have a fitted effect of over 55% in size
DT40 TDP1 no CPT: qHTS for Inhibitors of human tyrosyl-DNA phosphodiesterase 1 (TDP1): qHTS in cells in absence of CPT | DT40 Tdp1-/- hTDP1 cells, no CPT, ATP luminescence, 48 h | Potency, µM (highest dose often 46.2 µM), for inactives: at the top dose activity change, negative = growth inhibition, actives largely listed as inhibitors | 15% of 420,000 active; also: potency is read from the fitted curve at half-maximal effect; % is scaled to controls: 0 for no effect and ±100 for the full control effect; nearly all actives have a fitted effect of over 55% in size
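DT40 Tdp1-/-;hTDP1 cells, no CPT (DMSO vehicle only), 400 cells/well; compounds pin-transferred; ≥48 hr, 37 °C; CellTiter-Glo 30 min RT dark, luminescence read.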
TDP1 inh: TDP1 (human) enzyme inhibition; Q9NUW8; recombinant TDP1, AlphaScreen DNA substrate cleavage; Potency, µM (doses to about 130 µM), for the others: top-dose activity change, negative = inhibition, usual class: inhibitors; 0.28% of 350,000 active; also: potency is read from the fitted curve at half-maximal effect; % is scaled to controls: 0 for no effect and ±100 for the full control effect; nearly all actives have a fitted effect of over 40% in size
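Enzyme-compound mixtures sat 15 min at room temperature, followed by a 5 min reaction with 15 nM final substrate and 10 min with AlphaScreen beads. Recombinant human Tdp1 was used at 1 nM final.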
DT40 TDP1 CPT: DT40-hTDP1 cell growth loss with CPT | chicken DT40 Tdp1-/-;hTDP1 cells + 20 nM CPT, ATP luminescence, 48 h | Potency, µM (titrated, usually from 46.2 µM), for inactives: at the highest dose activity change, negative = growth inhibition, actives largely listed as inhibitors | 12% of 420,000 active; also: potency is read from the fitted curve at half-maximal effect; % is scaled to controls: 0 for no effect and ±100 for the full control effect; nearly all actives have a fitted effect of over 55% in size
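Chicken DT40 Tdp1-/- cells complemented with human TDP1, 400 cells/well, exposed to compounds plus 20 nM camptothecin for at least 48 h at 37 C; viability read as ATP content by CellTiter-Glo luminescence.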
* = called active by the depositor; ? = inconclusive; . = not tested or not shown; [ ] = another dose, or the depositor's remark. Unless noted, calls follow the shape of the dose curve; as a rule, active = well fitted curve in the direction sought with a large enough effect; inconclusive = small, poorly fitted or top-dose-only effect, or another doubt; inactive = no such curve, though single readings can be large; an effect the other way counts as inactive or inconclusive.

1) CN(C)c1ncnc2c1ccn2C1OC(CO)C(O)C1O (configuration not stated)
2) OCC1OC(n2ccc3c(NO)ncnc32)C(O)C1O (configuration not stated)
3) COc1cc(S(=O)(=O)N2CCCC3(CCCCC3)C2)ccc1-n1cnnn1
4) Cc1nc2cccnc2n1-c1cccc(C(=O)N2CCN(c3cccc(Cl)c3)CC2)c1
5) COc1cccc(N2CCN(C(=O)c3cccc(-n4c(C)nc5cccnc54)c3)CC2)c1
6) O=C(Cc1ncon1)Nc1ccc(F)c(F)c1F

| assay / entry | 1 | 2 | 3 | 4 | 5 | 6 |
| --- | --- | --- | --- | --- | --- | --- |
| miR-21 reporter | . | . | -8% | ? | 26% | 0% |
| uPA generation | -10% | -12% | 3% | . | . | 3% |
| DT40 TDP1 no CPT | 8.2µM* | 0.15µM* | ? | 4.6µM* | 16µM* | 4% |
| TDP1 inh | . | . | 5% | 6% | 3% | 6% |
| DT40 TDP1 CPT | 3.3µM* | 0.15µM* | -9% | 4.1µM* | 12µM* | 4% |

7) O=C(c1cnccn1)N1CCC[C@@]2(CCN(c3ncccn3)C2)C1
8) COc1nc(-c2ccccc2)nc(-c2ccccc2)c1C
9) CCCCCCC=C1CCC(CN2CCCC2)C1=O (configuration not stated)
10) Cc1ccc(N(CC(=O)NC2CCCC2)C(=O)CCC(=O)Nc2nccs2)c(C)c1
11) COc1ccccc1/C=C\C=N\n1c(-c2ccc(Cl)cc2)n[nH]c1=S
12) Cc1cccc(-n2c(-c3ccccc3)c[nH]c2=S)c1C

| assay / entry | 7 | 8 | 9 | 10 | 11 | 12 |
| --- | --- | --- | --- | --- | --- | --- |
| miR-21 reporter | . | . | . | -10% | -4% | 5% |
| uPA generation | . | 1% | . | -7% | 0% | 0% |
| DT40 TDP1 no CPT | -3% | -32% | 4.1µM* | ? | ? | 12µM* |
| TDP1 inh | . | . | . | . | 0% | 14% |
| DT40 TDP1 CPT | 8% | -8% | 2.9µM* | -7% | ? | ? |

13) COc1ccccc1-n1c(-c2ccc(Cl)cc2)c[nH]c1=S
14) Cc1cccc(-n2c(-c3ccncc3)n[nH]c2=S)c1C
15) COc1ccccc1CNC(=O)C1CCCN(S(=O)(=O)c2cccc3nsnc23)C1 (configuration not stated)
16) COc1ccc(OC)c(NC(=O)C2CCCN(S(=O)(=O)c3cccc4nsnc34)C2)c1 (configuration not stated)
17) COc1cc(NC(=O)C2CCCN(S(=O)(=O)c3cccc4nsnc34)C2)cc(OC)c1 (configuration not stated)
18) COc1cc(NC(=O)C(Cc2ccccc2)NS(=O)(=O)c2cccc3nsnc23)cc(OC)c1 (configuration not stated)

| assay / entry | 13 | 14 | 15 | 16 | 17 | 18 |
| --- | --- | --- | --- | --- | --- | --- |
| miR-21 reporter | 9% | 2% | 2% | -4% | 24% | 3% |
| uPA generation | 7% | -6% | 0% | 4% | -2% | . |
| DT40 TDP1 no CPT | 21µM* | 1% | ? | 16µM* | 21µM* | 16µM* |
| TDP1 inh | 2% | 18µM* | 3% | 6% | 4% | 5% |
| DT40 TDP1 CPT | 23µM* | 1% | ? | 16µM* | ? | 16µM* |

19) Cc1ccc2nc(NC(=O)C3CCCN(S(=O)(=O)c4cccc5nsnc45)C3)sc2c1 (configuration not stated)
20) Cc1ccc2nc(NC(=O)C3CCN(S(=O)(=O)c4cccc5nsnc45)CC3)sc2c1
21) O=C(Nc1ccc(Br)cc1)C(Cc1ccccc1)NS(=O)(=O)c1cccc2nsnc12 (configuration not stated)
22) CN(C)CC1CCC/C(=C\c2ccc(OC(=O)/C=C/c3ccccc3)cc2)C1=O (configuration not stated)
23) O=C1/C(=C\c2ccc(Cl)cc2)CCC1CNc1ccc(Cl)cc1 (configuration not stated)
24) CN(C)CC1CC/C(=C\c2ccc(O)cc2)C1=O (configuration not stated)

| assay / entry | 19 | 20 | 21 | 22 | 23 | 24 |
| --- | --- | --- | --- | --- | --- | --- |
| miR-21 reporter | 17% | 13% | -4% | . | . | . |
| uPA generation | -7% | -11% | . | -3% | -3% | -10% |
| DT40 TDP1 no CPT | 18µM* | ? | -28% | 1.8µM* | 2.6µM* | 1.3µM* |
| TDP1 inh | 7% | 0% | 5% | . | . | . |
| DT40 TDP1 CPT | ? | ? | -29% | 1.3µM* | 2.3µM* | 0.58µM* |

25) COc1ccc(/C=C2/CCC(CN3CCOCC3)C2=O)cc1 (configuration not stated)
26) CCCS(=O)(=O)N1CCC(C(=O)NC2CCCC(C)C2C)CC1 (configuration not stated)
27) CN(C)CC1CCC/C(=C\c2ccc(OC(=O)c3ccc(Cl)cc3)cc2)C1=O (configuration not stated)
28) O=C(Oc1ccc2c(c1)OCC2=O)c1ccc(Cl)cc1
29) COc1cc2sc3cc(NCc4ccc5c(c4)OCO5)ccc3c(=O)c2cc1OC
30) COc1ccc(NCc2ccc3c(c2)OCO3)cc1Cl

| assay / entry | 25 | 26 | 27 | 28 | 29 | 30 |
| --- | --- | --- | --- | --- | --- | --- |
| miR-21 reporter | . | -21% | . | 0% | . | -21% |
| uPA generation | -11% | 7% | -8% | 5% | 2% | 1% |
| DT40 TDP1 no CPT | 1.2µM* | ? | 0.41µM* | -10% | 16µM* | -16% |
| TDP1 inh | . | 0% | . | -1% | 1% | 8% |
| DT40 TDP1 CPT | 1.2µM* | ? | 0.52µM* | -2% | ? | -12% |

Looked up by structure from above:
29) COc1cc2sc3cc(NCc4ccc5c(c4)OCO5)ccc3c(=O)c2cc1OC
26) CCCS(=O)(=O)N1CCC(C(=O)NC2CCCC(C)C2C)CC1 (configuration not stated)
25) COc1ccc(/C=C2/CCC(CN3CCOCC3)C2=O)cc1 (configuration not stated)
30) COc1ccc(NCc2ccc3c(c2)OCO3)cc1Cl

| assay / entry | 29 | 26 | 25 | 30 |
| --- | --- | --- | --- | --- |
| miR-21 reporter | . | -21% | . | -21% |
| uPA generation | 2% | 7% | -11% | 1% |
| DT40 TDP1 no CPT | 16µM* | ? | 1.2µM* | -16% |
| TDP1 inh | 1% | 0% | . | 8% |
| DT40 TDP1 CPT | ? | ? | 1.2µM* | -12% |

(further entries)
cpd	mol	miR-21 reporter	uPA generation	DT40 TDP1 no CPT	TDP1 inh	DT40 TDP1 CPT
31	COc1cc2sc3cc(NCc4ccc(C)o4)ccc3c(=O)c2cc1OC	.	13µM*	15µM*	5%	?
32	CCOc1ccc(CNC(=O)Cn2nc(C)c3c(C)n(-c4ccc(C)cc4)nc3c2=O)cc1	-2%	-9%	-13%	-20%	?
33	C=CCNC(=O)NC(=O)COC(=O)c1cccnc1SC	0%	-8%	-5%	5%	-2%
34	COc1ccc(NC(=O)CN2C(=O)C(c3ccccc3)=NC23CCC(C)CC3)cc1Cl (configuration not stated)	?	.	?	3%	?
35	CCOc1ccc(NC(=O)CN2C(=O)C(c3ccccc3)=NC23CCC(C)CC3)cc1 (configuration not stated)	28%	.	16µM*	8%	16µM*
36	COc1ccc(CN2CCNC(=O)C2CC(=O)N(C)Cc2nccs2)c(OC)c1 (configuration not stated)	-2%	-5%	-1%	1%	?
37	O=C(Nc1ccc(F)cc1F)C1CCCN1S(=O)(=O)c1ccc(-c2ccc(=O)[nH]n2)s1 (configuration not stated)	-8%	-4%	-27%	2%	?
38	O=C(NCC(c1cccs1)N1CCOCC1)c1cnc(Cl)c(Cl)c1 (configuration not stated)	.	?	?	1%	?
39	O=C(NCC(c1cccs1)N1CCOCC1)c1ccc(OCc2ccccc2)cc1 (configuration not stated)	.	5%	21µM*	0%[56.1 µM]	15µM*
40	O=C(NCC(c1ccc(F)cc1)N1CCOCC1)c1ccc(OCc2ccccc2)cc1 (configuration not stated)	.	13%	21µM*	0%	18µM*
41	COc1cc(C(=O)NCC(c2cccs2)N2CCOCC2)ccc1OCc1ccc(Cl)cc1 (configuration not stated)	.	.	3.7µM*	.	6.5µM*
42	O=C(NCC(c1ccc(F)cc1)N1CCOCC1)c1ccc([N+](=O)[O-])o1 (configuration not stated)	.	-16%	26µM*	0%	21µM*
